ChEMBL document CHEMBL3232862, “Optimization of chemical functionalities of indole-2-carboxamides to improve allosteric parameters for the cannabinoid receptor 1 (CB1)” (J Med Chem, 2014)

Chains of the proteins cited; added tags and fusions are not shown.
UniProt P21554, whole entry: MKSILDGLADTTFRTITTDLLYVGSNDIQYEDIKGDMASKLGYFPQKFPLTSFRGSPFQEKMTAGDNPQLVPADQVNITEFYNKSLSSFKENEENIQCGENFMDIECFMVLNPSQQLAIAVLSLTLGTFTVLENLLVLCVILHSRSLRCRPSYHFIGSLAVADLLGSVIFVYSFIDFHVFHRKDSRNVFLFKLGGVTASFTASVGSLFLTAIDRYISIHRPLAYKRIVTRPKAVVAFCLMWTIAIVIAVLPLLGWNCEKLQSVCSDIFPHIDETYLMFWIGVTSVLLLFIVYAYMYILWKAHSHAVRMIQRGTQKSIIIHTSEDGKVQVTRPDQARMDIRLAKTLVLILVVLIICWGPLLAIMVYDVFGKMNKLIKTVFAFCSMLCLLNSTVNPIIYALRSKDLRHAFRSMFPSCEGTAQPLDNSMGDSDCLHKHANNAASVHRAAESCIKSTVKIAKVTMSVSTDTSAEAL

Molecular target: Cannabinoid receptor 1 (Homo sapiens) (UniProt P21554)
Experiment: Positive allosteric modulation of cannabinoid CB1 receptor (unknown origin) expressed in HEK293 cells assessed as effect on ERK1/2 phosphorylation at 10 uM by Western blot analysis in absence of siRNA targeting beta-arrestin 1
Assay type: cell-based

CCCCCc1c(C(=O)NCCc2ccc(N3CCCCC3)cc2)[nH]c2ccc(Cl)cc12
Activity: Active

Calls of active or inactive are those of the source. No cut-off for these calls is given here.
